# T1: PscG (Pseudomonas aeruginosa, UniProt P95435 1-115)
# T1 sequence (looked up): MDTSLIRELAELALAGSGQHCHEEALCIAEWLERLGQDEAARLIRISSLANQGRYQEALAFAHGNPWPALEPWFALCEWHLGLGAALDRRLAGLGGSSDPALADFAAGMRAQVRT
# Biological target: T1, PscG
# Assay: ITC
binder,measurement,value
"PscE (natural protein, Pseudomonas aeruginosa, UniProt Q9I317 1-67, looked up) MMTALETRLSVADGTHAAALRQRLQAALAECRRELARGACPEHFQFLQQQARALEGGLGILSQLTED",Kd,1.17 µM

# — paper PMC6662154 (ACS Central Science, 2019)
